In publication PMC6298966, “HAI Peptide and Backbone Analogs—Validation and Enhancement of Biostability and Bioactivity of BBB Shuttles” (Scientific Reports, 2018):

Experiments:
Caco-2 cells = test: Caco-2 intestinal barrier model assay
[1] = system: in vitro bovine BBB model; test: In vitro bovine BBB cell-based model assay; settings: Table 1, 2 h at 37 °C, 200 μM, RP-HPLC
[2] = Table 1, 2 h at 37 °C, HBSS, 50 μM, RP-HPLC

## Penetratin
Caco-2 cells; Caco-2 assay, after 2 h
  Detection by MALDI-TOF MS in acceptor wells: detected
Caco-2 cells; [2]
  Caco-2 Papp: 4.2 ± 1.3 ×10^−10 cm/s
  Caco-2 T (%): 1.6 ± 0.5%
[1]
  BBB Papp: 3.0 ± 0.6 ×10^−6 cm/s
  BBB T (%): 1.8 ± 0.2%
